Measured values: US12691110B2, “Topotecan for proliferative vitreoretinopathy” (Massachusetts Eye and Ear Infirmary, priority 2022, dated 2026)

Test system: C-PVR cells
Experiment: CyQuant cell proliferation assay in human patient derived primary cultures of PVR
Format: cell-based
Procedure: Twelve candidate drugs were tested at 2 concentrations at 72 hours for their effects on proliferation and cytotoxicity in C-PVR cells. […] Each anti-proliferative drug was tested at 2 concentrations determined by using the IC50 of each drug. The data was expressed as percent cell inhibition.
The cells were washed and the CyQuant Direct nucleic acid stain was added and incubated at 37 degrees in the incubator. Fluorescence read outs were measured at wavelengths as instructed in the protocol.

## CC[C@@]1(O)C(=O)OCc2c1cc1n(c2=O)Cc2cc3c(CN(C)C)c(O)ccc3nc2-1 [Topotecan, topotecan]
  synergistic effect in combination with other drugs on proliferation of C-PVR cells: 6 out of 10 showed a synergistic effect
